Laboratory results reported in US20200317660A1, “Quinazolinone Compound and Application Thereof” (LUOXIN PHARMACEUTICAL (SHANGHAI) CO., LTD., priority 2017, published 2020).
pIC50: −log10 of the molar value.

Amino acid sequences for entries named in this document (tags omitted). A change or cut given only in a name is not applied to a line headed by its entry.
UniProt P42336, whole entry: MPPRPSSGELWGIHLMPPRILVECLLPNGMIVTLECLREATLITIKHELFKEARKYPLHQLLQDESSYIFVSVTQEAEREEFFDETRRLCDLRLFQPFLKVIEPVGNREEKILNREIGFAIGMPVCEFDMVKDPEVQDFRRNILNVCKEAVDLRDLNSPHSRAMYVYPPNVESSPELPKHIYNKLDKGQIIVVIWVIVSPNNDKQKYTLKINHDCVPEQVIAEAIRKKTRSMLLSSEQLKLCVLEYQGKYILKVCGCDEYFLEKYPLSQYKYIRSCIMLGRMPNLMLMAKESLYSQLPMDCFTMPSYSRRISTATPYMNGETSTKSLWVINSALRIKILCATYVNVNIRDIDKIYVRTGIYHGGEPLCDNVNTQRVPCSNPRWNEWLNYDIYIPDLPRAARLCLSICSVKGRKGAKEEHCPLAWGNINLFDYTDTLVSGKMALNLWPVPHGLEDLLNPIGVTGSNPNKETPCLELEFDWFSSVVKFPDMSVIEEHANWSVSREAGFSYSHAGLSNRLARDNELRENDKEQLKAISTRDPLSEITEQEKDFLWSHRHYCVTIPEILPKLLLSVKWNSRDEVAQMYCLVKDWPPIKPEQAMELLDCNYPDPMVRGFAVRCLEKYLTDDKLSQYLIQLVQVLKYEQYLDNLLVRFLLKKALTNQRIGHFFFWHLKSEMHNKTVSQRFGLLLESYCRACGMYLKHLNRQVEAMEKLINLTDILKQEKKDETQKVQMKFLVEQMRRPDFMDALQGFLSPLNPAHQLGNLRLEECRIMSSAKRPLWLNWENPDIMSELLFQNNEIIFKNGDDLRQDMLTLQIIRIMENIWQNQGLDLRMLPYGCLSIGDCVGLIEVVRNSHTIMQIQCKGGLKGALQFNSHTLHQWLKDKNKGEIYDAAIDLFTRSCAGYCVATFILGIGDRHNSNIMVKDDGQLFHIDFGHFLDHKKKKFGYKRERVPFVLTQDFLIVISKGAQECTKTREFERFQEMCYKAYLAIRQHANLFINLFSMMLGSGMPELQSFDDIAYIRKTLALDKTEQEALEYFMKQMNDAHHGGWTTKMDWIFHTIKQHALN
UniProt P48736, whole entry: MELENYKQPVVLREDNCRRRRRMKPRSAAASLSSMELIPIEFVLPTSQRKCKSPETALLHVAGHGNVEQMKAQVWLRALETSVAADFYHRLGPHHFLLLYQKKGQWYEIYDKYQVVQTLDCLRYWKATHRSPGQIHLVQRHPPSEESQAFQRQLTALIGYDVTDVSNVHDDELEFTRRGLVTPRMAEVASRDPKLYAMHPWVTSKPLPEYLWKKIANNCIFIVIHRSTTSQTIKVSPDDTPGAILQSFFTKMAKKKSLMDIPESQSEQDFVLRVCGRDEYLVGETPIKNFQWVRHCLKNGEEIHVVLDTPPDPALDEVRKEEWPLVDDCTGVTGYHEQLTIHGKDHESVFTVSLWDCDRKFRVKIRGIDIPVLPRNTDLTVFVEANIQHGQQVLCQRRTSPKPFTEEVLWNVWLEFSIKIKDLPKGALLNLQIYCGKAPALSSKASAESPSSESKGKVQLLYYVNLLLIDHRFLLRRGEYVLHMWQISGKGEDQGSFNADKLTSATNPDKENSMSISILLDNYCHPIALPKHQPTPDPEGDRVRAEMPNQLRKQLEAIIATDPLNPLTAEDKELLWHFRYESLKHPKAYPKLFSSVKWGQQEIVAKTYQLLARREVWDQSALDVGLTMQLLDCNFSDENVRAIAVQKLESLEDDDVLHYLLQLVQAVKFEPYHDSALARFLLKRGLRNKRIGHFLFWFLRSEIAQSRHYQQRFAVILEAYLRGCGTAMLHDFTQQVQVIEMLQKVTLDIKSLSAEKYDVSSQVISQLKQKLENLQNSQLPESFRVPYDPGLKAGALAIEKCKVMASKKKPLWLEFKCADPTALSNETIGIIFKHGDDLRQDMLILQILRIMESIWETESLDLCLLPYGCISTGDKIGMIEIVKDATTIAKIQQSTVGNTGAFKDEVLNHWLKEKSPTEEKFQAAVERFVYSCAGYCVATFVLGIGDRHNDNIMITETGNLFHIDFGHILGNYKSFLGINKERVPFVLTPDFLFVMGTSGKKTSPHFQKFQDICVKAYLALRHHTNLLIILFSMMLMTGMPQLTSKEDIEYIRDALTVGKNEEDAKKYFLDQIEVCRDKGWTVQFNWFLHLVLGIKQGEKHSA
UniProt O00329, whole entry: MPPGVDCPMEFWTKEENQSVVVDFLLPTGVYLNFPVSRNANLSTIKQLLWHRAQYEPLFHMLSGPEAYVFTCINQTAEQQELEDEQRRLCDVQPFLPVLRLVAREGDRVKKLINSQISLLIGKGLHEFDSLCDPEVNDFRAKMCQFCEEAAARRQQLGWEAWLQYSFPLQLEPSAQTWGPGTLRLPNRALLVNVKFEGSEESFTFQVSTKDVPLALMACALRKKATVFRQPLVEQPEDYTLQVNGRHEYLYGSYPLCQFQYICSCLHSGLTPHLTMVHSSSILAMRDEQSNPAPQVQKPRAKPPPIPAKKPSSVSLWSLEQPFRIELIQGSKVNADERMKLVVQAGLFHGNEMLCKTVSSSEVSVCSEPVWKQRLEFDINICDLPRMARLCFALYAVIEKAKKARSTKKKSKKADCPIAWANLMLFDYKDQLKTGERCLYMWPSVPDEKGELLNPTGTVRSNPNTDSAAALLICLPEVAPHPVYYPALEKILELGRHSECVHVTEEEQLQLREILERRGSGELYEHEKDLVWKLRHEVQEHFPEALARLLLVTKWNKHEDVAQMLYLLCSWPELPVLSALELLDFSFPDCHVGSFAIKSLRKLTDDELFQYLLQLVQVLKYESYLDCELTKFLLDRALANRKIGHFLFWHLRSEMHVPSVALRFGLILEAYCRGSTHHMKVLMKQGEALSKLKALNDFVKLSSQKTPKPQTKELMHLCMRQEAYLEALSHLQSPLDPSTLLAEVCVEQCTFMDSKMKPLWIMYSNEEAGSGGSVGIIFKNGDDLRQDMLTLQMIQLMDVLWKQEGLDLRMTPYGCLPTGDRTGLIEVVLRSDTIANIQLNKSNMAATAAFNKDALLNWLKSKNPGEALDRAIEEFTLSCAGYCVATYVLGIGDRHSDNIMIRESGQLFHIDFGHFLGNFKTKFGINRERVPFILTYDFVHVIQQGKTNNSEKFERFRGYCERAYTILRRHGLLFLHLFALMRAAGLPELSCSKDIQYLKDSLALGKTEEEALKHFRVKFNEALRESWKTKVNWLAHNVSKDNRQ
UniProt P42338, whole entry: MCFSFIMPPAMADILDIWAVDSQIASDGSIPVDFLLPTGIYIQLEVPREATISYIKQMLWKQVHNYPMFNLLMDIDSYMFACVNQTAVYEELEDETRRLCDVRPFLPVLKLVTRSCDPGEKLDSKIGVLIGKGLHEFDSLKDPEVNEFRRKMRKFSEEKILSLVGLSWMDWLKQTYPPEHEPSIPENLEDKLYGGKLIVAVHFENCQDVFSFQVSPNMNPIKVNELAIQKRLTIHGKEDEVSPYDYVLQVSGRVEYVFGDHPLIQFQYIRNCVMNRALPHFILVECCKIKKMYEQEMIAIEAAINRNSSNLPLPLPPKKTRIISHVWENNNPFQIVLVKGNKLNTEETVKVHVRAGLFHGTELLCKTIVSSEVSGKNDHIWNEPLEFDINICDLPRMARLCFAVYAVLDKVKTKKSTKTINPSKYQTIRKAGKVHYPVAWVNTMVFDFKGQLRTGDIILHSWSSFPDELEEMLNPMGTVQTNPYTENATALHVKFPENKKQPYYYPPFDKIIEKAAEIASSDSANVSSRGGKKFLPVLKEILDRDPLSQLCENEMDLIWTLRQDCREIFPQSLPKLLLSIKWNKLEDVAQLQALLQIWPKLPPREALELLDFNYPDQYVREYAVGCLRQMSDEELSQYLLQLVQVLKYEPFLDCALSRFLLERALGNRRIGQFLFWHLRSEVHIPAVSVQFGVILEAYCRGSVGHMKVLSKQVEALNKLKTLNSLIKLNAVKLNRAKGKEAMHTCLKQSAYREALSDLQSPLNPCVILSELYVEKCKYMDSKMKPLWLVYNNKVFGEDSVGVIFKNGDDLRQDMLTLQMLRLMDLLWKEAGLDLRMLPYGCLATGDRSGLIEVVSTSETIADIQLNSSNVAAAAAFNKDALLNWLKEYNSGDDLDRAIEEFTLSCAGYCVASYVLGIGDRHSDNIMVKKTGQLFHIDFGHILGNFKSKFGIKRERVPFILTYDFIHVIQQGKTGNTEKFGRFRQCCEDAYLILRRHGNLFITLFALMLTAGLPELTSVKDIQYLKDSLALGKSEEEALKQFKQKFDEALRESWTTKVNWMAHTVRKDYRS
UniProt P27986, whole entry partner: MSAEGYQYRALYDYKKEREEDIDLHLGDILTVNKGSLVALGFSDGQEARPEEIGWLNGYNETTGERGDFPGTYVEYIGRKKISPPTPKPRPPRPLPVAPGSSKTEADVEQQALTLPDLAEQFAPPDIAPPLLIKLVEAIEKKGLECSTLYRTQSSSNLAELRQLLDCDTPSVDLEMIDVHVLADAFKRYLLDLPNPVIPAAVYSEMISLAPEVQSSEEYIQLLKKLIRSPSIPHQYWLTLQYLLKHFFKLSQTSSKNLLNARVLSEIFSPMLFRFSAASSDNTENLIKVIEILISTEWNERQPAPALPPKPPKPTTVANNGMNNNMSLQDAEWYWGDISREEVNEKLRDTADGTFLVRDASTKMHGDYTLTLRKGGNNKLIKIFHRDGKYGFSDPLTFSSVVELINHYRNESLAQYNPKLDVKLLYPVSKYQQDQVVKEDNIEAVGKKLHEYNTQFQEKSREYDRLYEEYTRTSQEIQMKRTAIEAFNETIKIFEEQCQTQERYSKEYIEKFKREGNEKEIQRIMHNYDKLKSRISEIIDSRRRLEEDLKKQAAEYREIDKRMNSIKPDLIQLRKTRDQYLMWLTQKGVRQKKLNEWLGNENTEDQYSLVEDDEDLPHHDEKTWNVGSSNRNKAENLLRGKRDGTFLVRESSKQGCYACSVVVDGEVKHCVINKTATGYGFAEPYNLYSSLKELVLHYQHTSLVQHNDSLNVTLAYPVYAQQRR

What was measured:
[1] = target: PI3Kα (Homo sapiens, UniProt P42336); assay: In vitro test of enzyme activity (ADP-Glo lipokinase), PI3K alpha; conditions: read-out: PI3Kα IC50, 40 μM ATP, 50 μM PIP2:3PS, 120 min
[2] = target: PI3Kγ (Homo sapiens, UniProt P48736); assay: In vitro test of enzyme activity (ADP-Glo lipokinase), PI3K gamma; conditions: read-out: PI3Kγ IC50, 25 μM ATP, 50 μM PIP2:3PS, 120 min
[3] = target: PI3Kδ (Homo sapiens, UniProt O00329); assay: In vitro test of enzyme activity (ADP-Glo lipokinase), PI3K delta; conditions: read-out: PI3Kδ IC50, 40 μM ATP, 50 μM PIP2:3PS, 120 min
[4] = target: PI3Kβ (Homo sapiens, UniProt P42338); assay: In vitro test of enzyme activity (ADP-Glo lipokinase), PI3K beta; conditions: read-out: PI3Kβ IC50, 40 μM ATP, 50 μM PIP2:3PS, 120 min

SMILES | pIC50 [1] | pIC50 [2] | pIC50 [3] | pIC50 [4]
Cc1ncc(-c2ccc3ncn(CC(C)C(N)=O)c(=O)c3c2)cc1NS(=O)(=O)c1ccc(F)cc1Cl (single isomer, unassigned) [WX028] | 8.51 | 7.42 | 7.46 | 6.22
COc1ncc(-c2ccc3ncn(CC(C)C(=O)NCC(C)C)c(=O)c3c2)cc1NS(=O)(=O)c1ccc(F)cc1Cl (single isomer, unassigned) [WX072] | 8.10 | 7.29 | 7.61 | 5.47
Cc1ncc(-c2ccc3ncn(CC(C)C(N)=O)c(=O)c3c2)cc1NS(=O)(=O)c1ccc(F)cc1Cl (single isomer, unassigned) [WX029] | 8.31 | 7.67 | 7.55 | 6.34
Cc1ncc(-c2ccc3ncn(CC(C)C(=O)NC4CC4)c(=O)c3c2)cc1NS(=O)(=O)c1ccc(F)cc1Cl (single isomer, unassigned) [WX054] | 8.15 | 7.06 | 7.20 | 5.44
CNC(=O)C(O)Cn1cnc2ccc(-c3cnc(OC)c(NS(=O)(=O)c4ccc(F)cc4Cl)c3)cc2c1=O (single isomer, unassigned) [WX045] | 8.86 | 8.39 | 8.19 | 6.96
CCc1ncc(-c2ccc3ncn(CC(C)C(=O)NC)c(=O)c3c2)cc1NS(=O)(=O)c1ccc(F)cc1Cl (single isomer, unassigned) [WX071] | 7.67 | 7.18 | 7.21 | 5.76
CNC(=O)[C@H]1C[C@@H](n2cnc3ccc(-c4cncc(NS(=O)(=O)c5sc(C)nc5C)c4)cc3c2=O)C1 | 8.31 | 7.15 | 7.38 | 6.09
CNC(=O)C(C)Cn1cnc2ccc(-c3cnc(OC)c(NS(=O)(=O)c4sc(C)nc4C)c3)cc2c1=O (single isomer, unassigned) [WX069] | 9.22 | 8.39 | 9.68 | 7.59
CNC(=O)[C@H]1C[C@@H](n2cnc3ccc(-c4cnc(C)c(NS(=O)(=O)c5ccc(F)cc5Cl)c4)cc3c2=O)C1 | 8.31 | 7.22 | 8.09 | 6.62
Cc1nc(C)c(S(=O)(=O)Nc2cc(-c3ccc4ncn([C@H]5C[C@@H](C(=O)NC(C)C)C5)c(=O)c4c3)cnc2C)s1 | 8.93 | 7.45 | 8.91 | 6.62
CNC(=O)C(C)Cn1cnc2ccc(-c3cnc(C)c(NS(=O)(=O)c4ccc(F)cc4Cl)c3)cc2c1=O (single isomer, unassigned) [WX039] | 8.23 | 7.35 | 7.51 | 6.21
CNC(=O)C(C)Cn1cnc2cc(F)c(-c3cnc(OC)c(NS(=O)(=O)c4ccc(F)cc4Cl)c3)cc2c1=O (single isomer, unassigned) [WX121] | 7.63 | 6.37 | 6.53 | < 5.00
COc1ncc(-c2ccc3ncn(CC(C)C(=O)NCCO)c(=O)c3c2)cc1NS(=O)(=O)c1ccc(F)cc1Cl (single isomer, unassigned) [WX080] | 8.76 | 7.96 | 7.93 | 6.59
CNC(=O)C(C)Cn1cnc2ccc(-c3cnc(OC)c(NS(=O)(=O)c4c(F)cccc4F)c3)cc2c1=O (single isomer, unassigned) [WX101] | 8.61 | 7.95 | 8.24 | 6.88
Cc1nc(C)c(S(=O)(=O)Nc2cc(-c3ccc4ncn(CC(C)C(=O)N(C)C)c(=O)c4c3)cnc2C)s1 (single isomer, unassigned) [WX042] | 8.77 | 7.42 | 8.37 | 6.90
